1 substance from paper PMC2910250 can be followed below.

This test deals with Werner syndrome protein (human (endogenous in NCCIT)) (UniProt Q14191). Nature of the test: co-IP.

For the substance “de novo DNA methyltransferase Dnmt3b (from UniProt Q9UBC3 1-853) (enzyme)”, the percent of chromatin-bound Dnmt3b associated with WRNp (densitometry) was less than 10%.
